For one compound, IC50 results are on record in ChEMBL document CHEMBL5143642, “Thiosemicarbazone derivatives: Evaluation as cruzipain inhibitors and molecular modeling study of complexes with cruzain” (Bioorg Med Chem, 2022).

Chains of the proteins cited; added tags and fusions are not shown. Lines headed by an entry give the natural chain unless they say otherwise; changes in a name come on top.
UniProt P25779: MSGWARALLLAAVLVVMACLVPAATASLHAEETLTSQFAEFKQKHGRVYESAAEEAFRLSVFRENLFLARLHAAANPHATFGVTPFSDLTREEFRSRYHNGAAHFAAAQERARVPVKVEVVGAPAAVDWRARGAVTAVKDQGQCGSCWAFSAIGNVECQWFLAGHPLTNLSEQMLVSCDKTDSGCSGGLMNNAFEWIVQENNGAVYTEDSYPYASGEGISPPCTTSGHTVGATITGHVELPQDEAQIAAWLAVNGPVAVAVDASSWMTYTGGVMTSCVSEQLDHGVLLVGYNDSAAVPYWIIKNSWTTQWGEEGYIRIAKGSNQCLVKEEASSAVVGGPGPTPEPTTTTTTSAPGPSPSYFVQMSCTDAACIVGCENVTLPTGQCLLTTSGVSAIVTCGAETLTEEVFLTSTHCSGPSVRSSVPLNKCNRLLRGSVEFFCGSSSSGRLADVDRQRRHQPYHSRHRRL

Structures are written as SMILES.

The target in this assay is Cruzipain (Trypanosoma cruzi, UniProt P25779). The assay is described as follows: Inhibition of epimastigote form of Trypanosoma cruzi Tulahuen 2 cruzain assessed as reduction in 7-amino-4-methylcoumarin release incubated for 20 mins folllowed by Z-FR-AMC substrate addition and measured up to 45 mins by fluorometric assay.

`CC/C(=N\NC(N)=S)c1cccc(Br)c1`: the IC50 is 153 nM.

Broadly, the IC50 is the concentration that gives 50% inhibition.
